Only a part is listed here, and it is no random draw. Some structures show a salt or complex split into parts, the way the source records it. The source made the active and inactive calls. Calls follow the shape of the dose curve; as a rule, active = well fitted inhibition curve with a large enough effect; inconclusive = small, poorly fitted or top-dose-only effect; inactive = no such curve, though single readings can be large or run the other way.

This assay can be described thus: qHTS Assay for Identifying the Cell-Membrane Permeable IMPase Inhibitors: Potentiation with Lithium.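 Also: IP1 builds up when IMPase is blocked and the TR-FRET signal falls; plate controls were basal vehicle for no effect and high inhibitor control for full effect; nearly all actives have a fitted effect of over 50% in size.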 The settings on record: CHO-M1 cells, IP1 TR-FRET (IP-One), carbachol + lithium; at 59.4 µM (top of the series) unless noted. For orientation: Quantitative high-throughput screening tests each substance at several concentrations.
Take `CCN(CC)CCCOC(=O)C(O)(c1ccccc1)c1ccccc1`: the activity, negative = IMPase inhibition was inactive: 23.7%.
The same measure for `O=[N+]([O-])[O-].[NH4+]`: inactive: -0.202%.
Take `Cc1cccc(C)c1OP(C)(N)=O` (stereo not drawn): the activity, negative = IMPase inhibition was inactive: 3.61%.
With `CC(C)(C)c1ccc(OP(C)(=O)Nc2ccc(SC(F)(F)F)cc2)cc1` (stereo not drawn), the activity, negative = IMPase inhibition was inactive: 3.3%.
As for `O=[N+]([O-])c1ccc2c(c1)C=Nc1ccccc1O2`, the activity, negative = IMPase inhibition was inactive: -6.49%.
In the case of `CCOC(=O)c1ccc(NP(C)(=O)Oc2ccccc2)cc1` (stereo not drawn), the activity, negative = IMPase inhibition is inactive: -5.26%.
Regarding `Cc1ccc(NP(C)(=O)Oc2ccccc2)c(C)c1` (stereo not drawn), the activity, negative = IMPase inhibition is inactive: 38.5% [at 38.3 µM].
Take `COc1ccccc1OP(C)(=O)Nc1ccc(C)cc1` (stereo not drawn): the activity, negative = IMPase inhibition was inactive: -9.42% [at 38.3 µM].
`COc1ccc(OP(C)(=O)Nc2cccc(F)c2)cc1` (stereo not drawn): the activity, negative = IMPase inhibition is inactive: -1.07% [at 38.3 µM].
Regarding `COc1ccccc1OP(C)(=O)Nc1cc(Cl)ccc1C` (stereo not drawn), the activity, negative = IMPase inhibition was inactive: 13.3%.
The same measure for `Cc1cc(C)cc(OP(C)(N)=O)c1` (stereo not drawn): inactive: -14.6%.
For the compound `N1=C(c2nnc(-c3nn[nH]n3)nn2)NNN1`, the activity, negative = IMPase inhibition was inactive: -6.61%.
Take `CP(=S)(Nn1cnnc1)Oc1ccccc1` (stereo not drawn): the activity, negative = IMPase inhibition is inactive: 7.84% [at 38.3 µM].
Take `COc1ccccc1OP(C)(=O)Nc1ccccc1` (stereo not drawn): the activity, negative = IMPase inhibition was inactive: -5.6%.
Consider `CP(=O)(Nc1ccccc1Br)Oc1ccccc1` (stereo not drawn), for which the activity, negative = IMPase inhibition is inactive: -5.49%.
The same measure for `[Au].[Au].c1ccc([PH+](c2ccccc2)c2ccccc2)cc1.c1ccc([PH+](c2ccccc2)c2ccccc2)cc1.n1n[nH]c(-c2nnn[nH]2)n1`: inactive: -2.09%; for `CP(=O)(Oc1ccccc1)OC(c1ccccc1)C(F)(F)F` (stereo not drawn): inactive: 2.7%; for `Cc1cccc(C)c1OP(C)(=O)Nc1ccc(SC(F)(F)F)cc1` (stereo not drawn): inactive: 8.47%.
On to `Cc1cc(C)cc(OP(C)(=O)Nc2ccc(SC(F)(F)F)cc2)c1` (stereo not drawn), for which the activity, negative = IMPase inhibition is inactive: 4.06%.
The value for `CP(=O)(NC(=O)Nc1ccccc1)Oc1ccccc1` (stereo not drawn) was inactive: -2.85% [at 38.3 µM].
As for `CCOP(C)(=S)SCC(=O)NC(C)C(=O)O` (stereo not drawn), the activity, negative = IMPase inhibition is inactive: -0.158% [at 38.3 µM].
The same measure for `CCOC(=O)c1ccc(NP(C)(=O)Oc2ccc(OC)cc2)cc1` (stereo not drawn): inactive: 2.98%.
For the compound `CP(=O)(Nc1ccccn1)Oc1ccc(Cl)cc1` (stereo not drawn), the activity, negative = IMPase inhibition was inactive: -14.4% [at 38.3 µM].
`O=[N+]([O-])c1cc([N+](=O)[O-])c(-n2nnc3ccccc32)c([N+](=O)[O-])c1`: the activity, negative = IMPase inhibition is inactive: 9.43%.
The same measure for `COc1ccccc1OP(C)(=O)Nc1c(C)cccc1C` (stereo not drawn): inactive: 1.45% [at 38.3 µM].
`CN1CCCCC1COC(=O)C1(O)c2ccccc2CCc2ccccc21` (stereo not drawn): the activity, negative = IMPase inhibition was inactive: 1.95%.
With `CCCOc1ccc(NP(C)(=O)Oc2ccc(Cl)cc2)cc1` (stereo not drawn), the activity, negative = IMPase inhibition was inactive: 19.3%.
As to `CP(=O)(Nc1ccc(SC(F)(F)F)cc1)Oc1ccccc1` (stereo not drawn), the activity, negative = IMPase inhibition was inactive: -5.44%.
The value for `O=[N+]([O-])c1cccc([N+](=O)[O-])c1` was inactive: -23.3%; that for `Cc1ccc([N+](=O)[O-])cc1[N+](=O)[O-]` was inactive: 9.8%.
As for `O=[N+]([O-])OCC(CO[N+](=O)[O-])(CO[N+](=O)[O-])CO[N+](=O)[O-]`, the activity, negative = IMPase inhibition is inactive: 0.143%.
Consider `CC1=NCCc2c1[nH]c1ccccc21.O=[N+]([O-])c1cc([N+](=O)[O-])c(O)c([N+](=O)[O-])c1`, for which the activity, negative = IMPase inhibition is inactive: -3.45%.
In the case of `Cc1cc(C)cc(OP(C)(=O)Nc2ccc(C)cc2C)c1` (stereo not drawn), the activity, negative = IMPase inhibition is inactive: 22.8% [at 38.3 µM].
The same measure for `CCOC(=O)c1ccc(NP(C)(=O)Oc2cc(C)cc(C)c2)cc1` (stereo not drawn): inactive: 11.9%.
For the compound `Cc1cc(C)cc(OP(C)(=O)Nc2ccccn2)c1` (stereo not drawn), the activity, negative = IMPase inhibition was inactive: 25% [at 38.3 µM].
`CP(=O)(Nc1cccc(Br)c1)Oc1ccccc1` (stereo not drawn): the activity, negative = IMPase inhibition was inactive: 16.3%.
On to `Cc1ccc(C)c(NP(C)(=O)Oc2ccccc2)c1` (stereo not drawn), for which the activity, negative = IMPase inhibition is inactive: 9.41% [at 38.3 µM].
The value for `CC(C)c1ccc(OP(C)(=O)Nc2ccc(SC(F)(F)F)cc2)cc1` (stereo not drawn) was inactive: -1.05%.
The value for `CP(=O)(Nc1ccccc1F)Oc1ccccc1` (stereo not drawn) was inactive: -4.72% [at 38.3 µM]; that for `O=C(OCCN1CCN(CCOCc2ccccc2)CC1)C(O)(c1ccccc1)c1ccccc1` was inactive: 17.5%.
Consider `Cc1cccc([N+](=O)[O-])c1[N+](=O)[O-]`, for which the activity, negative = IMPase inhibition is inactive: 8.88%.
Turning to `CCC(C)(OO)OOC(C)(CC)OO` (stereo not drawn), the activity, negative = IMPase inhibition was inactive: 4.47%.
Consider `COc1ccc(OP(C)(=O)Nc2ccc(SC(F)(F)F)cc2)cc1` (stereo not drawn), for which the activity, negative = IMPase inhibition is inactive: -0.877%.
On to `CCOC(=O)c1ccc(NP(C)(=O)Oc2ccc(F)cc2)cc1` (stereo not drawn), for which the activity, negative = IMPase inhibition is inactive: -9.61%.
For the compound `CCN(CC)CCCOC(=O)C(O)(c1ccccc1)C1CCCCC1` (stereo not drawn), the activity, negative = IMPase inhibition was inactive: 36%.
As for `CP(=O)(Nc1ccccc1)Oc1ccc(F)cc1` (stereo not drawn), the activity, negative = IMPase inhibition is inactive: -12.9% [at 38.3 µM].
For the compound `COc1ccc(NP(C)(=O)Oc2ccccc2OC)cc1` (stereo not drawn), the activity, negative = IMPase inhibition is inactive: 5.7%.
`CN(C)CCOC(=O)C(O)(c1ccccc1)C1CCCCC1` (stereo not drawn): the activity, negative = IMPase inhibition was inactive: 41.3% [at 38.3 µM].
As for `Cc1ccc([N+](=O)[O-])c([N+](=O)[O-])c1`, the activity, negative = IMPase inhibition is inactive: 4.45%.
The same measure for `Cc1c([N+](=O)[O-])cccc1[N+](=O)[O-]`: inactive: -10.9%; for `CCOP(=O)(CC)OCC`: inactive: 13.5%.
The same measure for `CCOP(C)(=S)SCC(=O)NC(C)(CC)C(=O)O` (stereo not drawn): inactive: 10.8% [at 38.3 µM]; for `CP(=O)(Nc1ccc2c(c1)OCCO2)Oc1ccccc1` (stereo not drawn): inactive: 2.33%; for `NNC(NN)NN.n1nc(-c2nn[nH]n2)n[nH]1`: inactive: 1.3%.
With `[NH4+].[O-][Cl+3]([O-])([O-])[O-]`, the activity, negative = IMPase inhibition is inactive: -9.35%.
Regarding `Cc1ccccc1NP(C)(=O)Nc1ccccc1C`, the activity, negative = IMPase inhibition is inactive: 9.18% [at 38.3 µM].
In the case of `CCN(CCCl)Cc1ccccc1C`, the activity, negative = IMPase inhibition was inactive: 35.6%.
For the compound `N#[O+].[C-]#N.[C-]#N.[C-]#N.[C-]#N.[C-]#N.[Fe+2].[Na+].[Na+]`, the activity, negative = IMPase inhibition was inactive: 11.8%.
The same measure for `COc1ccc(OP(C)(=O)Nc2ccc(Br)cc2)cc1` (stereo not drawn): inactive: -1.84%; for `CCN(CC)CC(O)COC(=O)C(O)(c1ccccc1)C1CCCCC1` (stereo not drawn): inactive: 17.9% [at 38.3 µM]; for `CCc1ccc(OP(C)(=O)Nc2cccnc2)cc1` (stereo not drawn): inactive: 4.2%.
On to `CP(=O)(Oc1ccccc1)N1CCOC1=O` (stereo not drawn), for which the activity, negative = IMPase inhibition was inactive: -20.8% [at 38.3 µM].
Take `OCCSCCO`: the activity, negative = IMPase inhibition was inactive: 26.5%.
On to `COc1ccccc1OP(C)(=O)Nc1c(C)n(C)n(-c2ccccc2)c1=O` (stereo not drawn), for which the activity, negative = IMPase inhibition was inactive: 0.348% [at 38.3 µM].
The same measure for `CP(=O)(Nc1ccc(Cl)cc1)Oc1ccc(F)cc1` (stereo not drawn): inactive: 10.9% [at 38.3 µM].
`COc1ccccc1OP(C)(=O)Nc1ccccc1Br` (stereo not drawn): the activity, negative = IMPase inhibition is inactive: 8.96%.
`CC(C)(C)c1ccc(OP(C)(=O)O)cc1`: the activity, negative = IMPase inhibition was inactive: 17.7% [at 38.3 µM].
The same measure for `CN(C)C(=O)c1c([N+](=O)[O-])cc([N+](=O)[O-])cc1[N+](=O)[O-]`: inactive: 9.59%; for `CP(=O)(OC12CC3CC(CC(C3)C1)C2)OC12CC3CC(CC(C3)C1)C2`: inactive: 3.09% [at 38.3 µM]; for `CCOC(=O)c1ccc(NP(C)(=O)Oc2ccc(Cl)cc2)cc1` (stereo not drawn): inactive: 0.646%.
`C/C1=C2N=C(/C=C3N=C(/C(C)=C4\[N-][C@@](C)([C@H]5N=C1[C@@](C)(CCC(=O)NC[C@H](C)OP(=O)([O-])O[C@@H]1[C@H](O)[C@H](n6cnc7cc(C)c(C)cc76)O[C@@H]1CO)[C@@H]5CC(N)=O)[C@](C)(CC(N)=O)[C@H]4CCC(N)=O)[C@@](C)(CC(N)=O)[C@@H]\3CCC(N)=O)C(C)(C)[C@@H]/2CCC(N)=O.[C-]#N.[Co+3]`: the activity, negative = IMPase inhibition was inactive: -6.12%.
Take `Cc1cc(C)cc(OP(C)(=O)Nc2cccc(C(F)(F)F)c2)c1` (stereo not drawn): the activity, negative = IMPase inhibition was inactive: 5.86%.
Take `COc1ccc(OP(C)(=O)Nc2ccccc2Br)cc1` (stereo not drawn): the activity, negative = IMPase inhibition is inactive: 2.26%.
For `Cc1nc2ccc3ccccc3c2o1.O=[N+]([O-])c1cc([N+](=O)[O-])c(O)c([N+](=O)[O-])c1`, the activity, negative = IMPase inhibition is inactive: 12.7% [at 38.3 µM].
As to `CP(=O)(Nc1ccc(Cl)cc1Cl)Oc1ccccc1` (stereo not drawn), the activity, negative = IMPase inhibition was inactive: -1.36%.
For the compound `CP(=O)(OCCOc1ccccc1)OCCOc1ccccc1`, the activity, negative = IMPase inhibition is inactive: 8.63%.
With `CN(C)CCOC(=O)C(O)(c1ccccc1)C1CCCC1` (stereo not drawn), the activity, negative = IMPase inhibition was inactive: 42.7% [at 38.3 µM].
As to `COc1ccc(OP(C)(=O)Nc2ccccn2)cc1` (stereo not drawn), the activity, negative = IMPase inhibition is inactive: 0.188% [at 38.3 µM].
Turning to `Cc1c(NP(C)(=O)Oc2ccc(C(C)C)cc2)c(=O)n(-c2ccccc2)n1C` (stereo not drawn), the activity, negative = IMPase inhibition was inactive: 4.24% [at 38.3 µM].
`O=[N+]([O-])c1cc([N+](=O)[O-])c(Nc2ccccn2)c([N+](=O)[O-])c1`: the activity, negative = IMPase inhibition was inactive: 4.64%.
Take `CCc1ccc(OP(C)(=O)O)cc1`: the activity, negative = IMPase inhibition was inactive: -14.9% [at 38.3 µM].
The same measure for `COc1ccccc1OP(C)(=O)Nc1ccc(C)cc1C` (stereo not drawn): inactive: -4.12% [at 38.3 µM]; for `CP(=O)(Nc1ccccn1)Oc1ccccc1` (stereo not drawn): inactive: 19.2% [at 38.3 µM].

The values above are taken from PubChem BioAssay AID1457 (National Center for Advancing Translational Sciences (NCATS), 2008).
